For orientation: pKi means the Ki on a negative log10 scale, so that one unit is a factor of ten.

pKi: −log10 of the molar value.

We go through six compounds from ChEMBL document CHEMBL4017450, “Synthesis and carbonic anhydrase inhibition of a series of SLC-0111 analogs” (Bioorg Med Chem, 2017).

The target in one experiment is Carbonic anhydrase 9 (Homo sapiens, UniProt Q16790).
The compound `NS(=O)(=O)c1ccc(NC(=O)Nc2cccc(C(F)(F)F)c2F)cc1` had a pKi of 8.06.

With `NS(=O)(=O)c1ccc(NC(=O)Nc2c(F)cccc2F)cc1`, the negative-log Ki (pKi) is 8.21.

`NS(=O)(=O)c1ccc(NC(=O)Nc2c(Cl)c(Cl)c(Cl)c(Cl)c2Cl)cc1`: the pKi was 8.20.

As for `NS(=O)(=O)c1ccc(NC(=O)Nc2ccc(Br)cc2F)cc1`, the pKi was 8.20.

Compound `NS(=O)(=O)c1ccc(NC(=O)Nc2ccc(C(F)(F)F)cc2Cl)cc1` gave a pKi of 8.08.

A further experiment has as its target Carbonic anhydrase 1 (Homo sapiens, UniProt P00915). Put plainly: Inhibition of human recombinant carbonic anhydrase 1 preincubated for 15 mins prior to testing measured for 10 to 100 secs by phenol red-based stopped-flow CO2 hydration assay.
For the compound `NS(=O)(=O)c1ccc(NC(=O)Nc2cccc(Cl)c2)cc1`, the pKi was 6.80.
